ChEMBL document CHEMBL1154939, “Novel multiple opioid ligands based on 4-aminobenzazepinone (Aba), azepinoindole (Aia) and tetrahydroisoquinoline (Tic) scaffolds” (Bioorg Med Chem Lett, 2010)

Amino acid sequences for entries named in this document (tags omitted).
UniProt P33533, whole entry: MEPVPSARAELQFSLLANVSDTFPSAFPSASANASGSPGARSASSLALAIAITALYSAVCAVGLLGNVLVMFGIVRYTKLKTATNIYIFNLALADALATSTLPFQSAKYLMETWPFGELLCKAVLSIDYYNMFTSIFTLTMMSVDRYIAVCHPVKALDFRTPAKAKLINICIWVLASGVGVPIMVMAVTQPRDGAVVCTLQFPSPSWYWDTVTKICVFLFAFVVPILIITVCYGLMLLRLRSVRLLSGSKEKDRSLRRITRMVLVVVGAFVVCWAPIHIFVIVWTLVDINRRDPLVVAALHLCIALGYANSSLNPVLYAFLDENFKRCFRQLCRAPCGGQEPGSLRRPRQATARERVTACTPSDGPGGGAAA
UniProt P32300, whole entry: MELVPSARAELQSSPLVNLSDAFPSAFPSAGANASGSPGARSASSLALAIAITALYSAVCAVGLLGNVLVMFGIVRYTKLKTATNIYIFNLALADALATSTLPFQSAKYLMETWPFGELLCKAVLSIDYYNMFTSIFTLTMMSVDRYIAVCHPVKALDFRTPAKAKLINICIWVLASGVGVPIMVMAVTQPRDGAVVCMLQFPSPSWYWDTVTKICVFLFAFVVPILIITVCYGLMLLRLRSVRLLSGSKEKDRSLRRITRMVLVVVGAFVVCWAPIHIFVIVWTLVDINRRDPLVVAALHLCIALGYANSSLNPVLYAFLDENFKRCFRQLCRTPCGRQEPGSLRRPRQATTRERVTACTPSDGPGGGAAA
UniProt P97266, whole entry: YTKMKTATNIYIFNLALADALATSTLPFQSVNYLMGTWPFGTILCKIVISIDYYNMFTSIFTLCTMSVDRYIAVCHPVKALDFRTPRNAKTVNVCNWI

Assays:
Rattus norvegicus [1] = species: Rattus norvegicus; assay: Selectivity ratio of Ki for rat mu opioid receptor to Ki for rat delta opioid receptor
[2] = molecular target: Delta-type opioid receptor (Rattus norvegicus, UniProt P33533); assay: Displacement of [3H]deltorphin 2 from delta opioid receptor in rat brain membranes; format: cell membranes
Procedure, shortened: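 Equilibrium competition binding on P2 membrane preparation of rat brain; mu sites labelled with [3H]DAMGO, delta sites with [3H]deltorphin II. Five to eight graded peptide doses, duplicate wells; Ki via Cheng-Prusoff. Mean ± SEM from three to six independent assays using different synaptosomal preparations.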

[3] = molecular target: Delta-type opioid receptor (Mus musculus, UniProt P32300); assay: Antagonist activity at delta opioid receptor in mouse vas deferens; format: functional, tissue-based
Mu-type opioid receptor = Mu-type opioid receptor (Cavia porcellus, UniProt P97266); assay: Antagonist activity at mu opioid receptor in guinea pig ileum; format: functional, tissue-based
Rattus norvegicus [4] = species: Rattus norvegicus; assay: Selectivity ratio of Ki for rat delta opioid receptor to Ki for rat mu opioid receptor

SMILES | Ratio Ki (Rattus norvegicus [1]) | Ki [2] | IC50 [3] | IC50 (Mu-type opioid receptor) | Ratio Ki (Rattus norvegicus [4])
Cc1cc(O)cc(C)c1C[C@H](N)C(=O)N1Cc2ccccc2C[C@H]1C(=O)NCCN(CCNC(=O)[C@@H]1Cc2ccccc2CN1C(=O)[C@@H](N)Cc1c(C)cc(O)cc1C)CCNC(=O)[C@@H]1Cc2ccccc2CN1C(=O)[C@@H](N)Cc1c(C)cc(O)cc1C | 2.1 | – | – | – | –
Cc1cc(O)cc(C)c1C[C@H](N)C(=O)N1Cc2ccccc2C[C@H]1C(=O)NCC/C=C/CCNC(=O)[C@@H]1Cc2ccccc2CN1C(=O)[C@@H](N)Cc1c(C)cc(O)cc1C | 6.3 | 0.00024 µM | > 10 µM | > 10 µM | –
Cc1cc(O)cc(C)c1C[C@H](N)C(=O)N1Cc2ccccc2C[C@H]1C(=O)O | 150 | – | – | – | –
Cc1cc(O)cc(C)c1C[C@H](N)C(=O)N[C@H]1Cc2ccccc2CN(CC(=O)NCCNC(=O)CN2Cc3ccccc3C[C@H](NC(=O)[C@@H](N)Cc3c(C)cc(O)cc3C)C2=O)C1=O | – | – | > 10 µM | – | 9.5
